{"source": "ChEMBL document CHEMBL5512616", "about": "“pH regulators and their inhibitors in tumor microenvironment” (Eur J Med Chem, 2024)", "key": {"A549": {"system": "A549", "test": "cells", "details": "Homo sapiens"}, "HepG2": {"system": "HepG2", "test": "cells", "details": "Homo sapiens"}, "MCF7": {"system": "MCF7", "test": "cells", "details": "Homo sapiens"}, "Carbonic anhydrase 2 [1]": {"biological_target": "T1, Carbonic anhydrase 2 (Homo sapiens, UniProt P00918)"}, "Carbonic anhydrase 2 [2]": {"biological_target": "T1, Carbonic anhydrase 2", "remark": "listed apart in the source"}, "HCT-116": {"system": "HCT-116", "test": "cells", "details": "Homo sapiens"}, "Carbonic anhydrase 2 [3]": {"biological_target": "T1, Carbonic anhydrase 2", "remark": "listed apart in the source"}, "Carbonic anhydrase 2 [4]": {"biological_target": "T1, Carbonic anhydrase 2", "test": "Inhibition of human CA II by phenol red based stopped-flow CO2 hydration assay"}, "Carbonic anhydrase 9": {"biological_target": "Carbonic anhydrase 9 (Homo sapiens, UniProt Q16790)"}}, "data": [{"smiles": "O=C(N/N=C/c1n[nH]c(-c2ccccc2)c1Cc1ccccc1)C12CC3CC(CC(C3)C1)C2", "values": [{"measurement": "IC50", "setting": "A549", "result": 3.75, "unit": "µM"}, {"measurement": "IC50", "setting": "HepG2", "result": 5.11, "unit": "µM"}, {"measurement": "IC50", "setting": "MCF7", "result": 7.46, "unit": "µM"}]}, {"smiles": "Nc1ccc2c(c1)NC(=O)CC2", "values": [{"measurement": "Ki", "setting": "Carbonic anhydrase 2 [1]", "result": "> 10", "unit": "µM"}]}, {"smiles": "Cc1cc(=O)oc2cc(OCc3cn(CCCCCCCCCCCCOc4ccc5ccc(=O)oc5c4)nn3)ccc12", "values": [{"measurement": "Ki", "setting": "Carbonic anhydrase 2 [2]", "result": "> 10", "unit": "µM"}]}, {"smiles": "Cc1ccc(S(=O)(=O)Nc2ccsc2-c2nc(-c3ccccc3)no2)cc1", "values": [{"measurement": "IC50", "setting": "HCT-116", "result": 11.1, "unit": "µM"}]}, {"smiles": "C/C(=N\\Nc1ccc(C#N)cc1)c1cc2ccccc2c(=O)o1", "values": [{"measurement": "Ki", "setting": "Carbonic anhydrase 2 [3]", "result": "> 100", "unit": "µM"}]}, {"smiles": "CCc1c(OCC(=O)c2ccccc2)ccc2c(C)c(CC(=O)OC)c(=O)oc12", "values": [{"measurement": "Ki", "setting": "Carbonic anhydrase 2 [2]", "result": "> 10", "unit": "µM"}]}, {"smiles": "O=C(CNC(=O)Oc1ccccc1)Nc1ccc2oc(=O)ccc2c1", "values": [{"measurement": "Ki", "setting": "Carbonic anhydrase 2 [4]", "result": "> 50", "unit": "µM"}]}, {"smiles": "Nc1ccc(S(=O)(=O)Nc2ccsc2-c2nc(-c3ccccc3)no2)cc1", "values": [{"measurement": "Ki", "setting": "Carbonic anhydrase 9", "result": 10.8, "unit": "µM"}]}, {"smiles": "COc1ccc(NC(=S)Nc2ccc3oc(=O)ccc3c2)cc1", "values": [{"measurement": "Ki", "setting": "Carbonic anhydrase 2 [2]", "result": "> 50", "unit": "µM"}]}]}
